The experiment deals with TACE (Homo sapiens, UniProt P78536). As to the kind of experiment: TACE inhibition (fluorescent peptidyl substrate). It counts as biochemical. The settings on record: for IC50: read-out: IC 50 nM, Table 15: In Vitro Inhibition of TACE.

The chains behind the UniProt entries cited, without tags or fusion partners. Residues count along the entry.
UniProt P78536, 215-824 limits assumed: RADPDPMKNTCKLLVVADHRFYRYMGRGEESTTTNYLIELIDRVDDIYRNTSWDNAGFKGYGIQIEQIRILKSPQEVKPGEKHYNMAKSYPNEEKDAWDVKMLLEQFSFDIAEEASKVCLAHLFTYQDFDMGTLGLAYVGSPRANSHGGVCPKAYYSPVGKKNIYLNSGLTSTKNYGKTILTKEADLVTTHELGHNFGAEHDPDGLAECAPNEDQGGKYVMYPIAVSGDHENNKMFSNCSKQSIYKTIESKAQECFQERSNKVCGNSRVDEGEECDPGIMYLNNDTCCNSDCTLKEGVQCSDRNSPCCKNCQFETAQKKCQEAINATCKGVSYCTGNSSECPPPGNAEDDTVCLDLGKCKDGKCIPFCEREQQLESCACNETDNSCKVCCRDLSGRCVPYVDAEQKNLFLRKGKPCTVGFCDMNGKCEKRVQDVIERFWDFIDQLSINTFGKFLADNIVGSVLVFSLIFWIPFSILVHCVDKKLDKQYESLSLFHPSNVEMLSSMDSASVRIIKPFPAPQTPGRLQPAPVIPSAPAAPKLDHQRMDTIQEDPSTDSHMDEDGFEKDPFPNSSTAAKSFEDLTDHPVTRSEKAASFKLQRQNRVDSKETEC

From patent EP1144368B1, “ACETYLENIC ALPHA-AMINO ACID-BASED SULFONAMIDE HYDROXAMIC ACID TACE INHIBITORS” (priority 1999, dated 2000) come the findings set out here.

Where two headings read alike, the source gives them in different places.

As usually defined, the % Inhibition is the share of the control response that was lost under treatment.

Turning to `CC#CCOc1ccc(S(=O)(=O)N[C@@H](CCCCNCc2ccccc2Cl)C(=O)NO)cc1`, the IC50 came to 328 nM. Also, the “% Inhibition at 1 uM” value (In Vitro Inhibition of TACE, 1 uM) turned out to be 95%.

Take `CC#CCOc1ccc(S(=O)(=O)N[C@H](CCCNC(=O)Cc2ccc(Cl)c(Cl)c2)C(=O)NO)cc1`: the IC50 (tested form: neutral parent, no salt stated) amounted to 6.11 nM.
